The values below are quoted from earlier work in PMC11338008, “Development and validation of CYP26A1 inhibition assay for high-throughput screening” (Biotechnology journal, 2024).

Counter-ions that a name gives are not always drawn.

The series has as its system recombinant CYP26A1. As to conditions: cited from earlier work.
For the compound `CC(=O)N1CCN(c2ccc(OCC3COC(Cn4ccnc4)(c4ccc(Cl)cc4Cl)O3)cc2)CC1` (centres unmarked) [Ketoconazole], the IC50 is 0.55 µM.

On to `C/C(=C\c1ccc(C(=O)O)cc1)c1ccc2c(c1)C(C)(C)CCC2(C)C` [TTNPB/Arotinoid acid, Arotinoid acid], for which the IC50 is 3.7 µM.

As to `CCC(CC)C(c1ccc(Nc2nc3ccccc3s2)cc1)n1cncn1` (centres unmarked) [R115866/Talarozole, Talarozole], the IC50 was 0.005 µM. As to `Clc1cccc(C(c2ccc3[nH]cnc3c2)n2ccnc2)c1` (centres unmarked) [Liarozole dihydrochloride], the IC50 is 2.1 µM. In the case of `C=C(c1ccc(C(=O)O)cc1)c1cc2c(cc1C)C(C)(C)CCC2(C)C` [Bexarotene], the IC50 was 12.3 µM.
